53 compounds from PubChem BioAssay AID1259310 (The Scripps Research Institute Molecular Screening Center, 2017) can be followed below.

By UniProt entry, the sequences of proteins in these tests, tags left out.
UniProt Q969H0, whole entry, looked up: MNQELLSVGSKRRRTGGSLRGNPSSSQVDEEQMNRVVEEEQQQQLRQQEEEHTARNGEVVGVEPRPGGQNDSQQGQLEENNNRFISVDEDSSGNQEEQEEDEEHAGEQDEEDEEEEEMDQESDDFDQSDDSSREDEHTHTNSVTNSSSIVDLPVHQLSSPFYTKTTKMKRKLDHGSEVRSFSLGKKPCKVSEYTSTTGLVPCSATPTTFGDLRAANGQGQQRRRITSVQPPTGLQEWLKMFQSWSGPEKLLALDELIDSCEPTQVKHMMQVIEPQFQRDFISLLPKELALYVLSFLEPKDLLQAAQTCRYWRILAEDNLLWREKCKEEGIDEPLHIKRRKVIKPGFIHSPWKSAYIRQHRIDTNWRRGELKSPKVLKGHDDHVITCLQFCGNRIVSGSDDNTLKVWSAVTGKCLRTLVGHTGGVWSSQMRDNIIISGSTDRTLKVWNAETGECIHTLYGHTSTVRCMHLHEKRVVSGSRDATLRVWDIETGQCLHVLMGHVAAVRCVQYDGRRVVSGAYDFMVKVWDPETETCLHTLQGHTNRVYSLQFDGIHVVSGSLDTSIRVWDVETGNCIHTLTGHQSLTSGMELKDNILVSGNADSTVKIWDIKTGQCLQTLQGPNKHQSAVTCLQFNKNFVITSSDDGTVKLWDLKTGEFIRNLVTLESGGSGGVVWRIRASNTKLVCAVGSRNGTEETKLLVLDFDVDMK

This is a selection; strong and weak results do not stand in their true shares. Activity calls are given as the source filed them. Rule as the data show it: active = normalized activity above about 1.9%; inactive = the rest.

The target of the test is F-box/WD repeat-containing protein 7 (Homo sapiens) (UniProt Q969H0). Description: FBW7 E3 ligase activators, primary screen, biochemical, AlphaScreen, human (AID 1259310).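 Also: purified mutant Fbw7 with reduced substrate affinity.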 The following applies: AlphaScreen FBW7–phospho-cyclin E peptide binding, activator screen; at 26.1 µM; stronger effect = higher value. On the technique in general: Bead proximity is the source of the signal in Alpha formats.
With `CC1(C)COP(=S)(N(C2=NCCC2)c2ccccc2)OC1`, the normalized activity (activation) was inactive: 0.14%. With `CC(C)OP(=O)(Nc1ccc(Br)cc1)OC(C)C` the figure was inactive: 0.23%; with `CCCCOP(=O)(Nc1cccc(F)c1)OCCCC`, inactive: -0.11%. To `COc1cc([N+](=O)[O-])cc([N+](=O)[O-])c1OCC(=O)N/N=C/c1ccc([N+](=O)[O-])o1` belongs inactive: -0.04%; to `O=[N+]([O-])c1ccc(NCCN(CCO)c2ccc([N+](=O)[O-])cc2[N+](=O)[O-])c(Cl)c1`, inactive: -0.3%.

For `O=[N+]([O-])c1ccc(N/N=C/c2ccc([N+](=O)[O-])s2)c([N+](=O)[O-])c1`, the normalized activity (activation) was inactive: 0.11%. With `CC(=Nc1cc([N+](=O)[O-])ccc1C)NNc1ccc([N+](=O)[O-])cc1[N+](=O)[O-]` the figure was inactive: -0.01%; with `COP(=O)(OC)Oc1c(Cl)c(Cl)c(O)c(Cl)c1Cl`, inactive: 0.11%. With `CCSP(=O)(c1ccccc1)c1ccccc1` the figure was inactive: 0.03%.

As to `O=C(Cc1ccc(F)cc1)N(Cc1ccco1)C1CCN(CCc2ccccn2)CC1`, the normalized activity (activation) was inactive: 0.1%. For the compound `COCCN(CCOC)C(=O)COC(=O)C(O)(c1ccccc1)c1ccccc1`, the normalized activity (activation) is inactive: 0.36%. On to `CN(C)C1(CNC(=O)c2ccc(S(C)(=O)=O)cc2)CCCCC1`, for which the normalized activity (activation) was inactive: -0.08%. With `O=C(O)C(Cl)CSc1nc2ccccc2o1` (stereo not drawn) the figure was inactive: -0.26%; with `O=C(/C=C/c1ccccc1)OC1CN2CCC1CC2` (stereo not drawn), inactive: 0.02%. `COc1ccccc1NC1=NCC(CBr)S1` (stereo not drawn): the normalized activity (activation) is inactive: -0.65%. To `CC(C)NC(=O)N(Cc1cccnc1)C1CCN(CCc2ccccn2)CC1` belongs inactive: 0.68%; to `Cc1nn(-c2ccccc2)c2c1P(=O)(N1CCOCC1)N(C)C(c1ccccc1)=N2` (stereo not drawn), inactive: 0.07%. Regarding `N#Cc1cccc(C(=O)N(Cc2ccco2)C2CCN(CCc3ccccn3)CC2)c1`, the normalized activity (activation) was inactive: -0.06%.

Turning to `Cc1n[n+]2c([nH]c1=O)SCC(Br)C2c1ccccc1` (stereo not drawn), the normalized activity (activation) was inactive: 0.01%. To `O=[N+]([O-])c1ccc2c(c1)/C(=N\O)c1cc([N+](=O)[O-])cc([N+](=O)[O-])c1-2` belongs inactive: 0.03%. To `O=C(Nc1ccc(Br)cc1[N+](=O)[O-])c1cc([N+](=O)[O-])cc([N+](=O)[O-])c1` belongs inactive: -0.15%; to `CCCCC(NC(=O)OC(C)(C)C)C(=O)O` (stereo not drawn), inactive: -0.13%; to `COC(=O)c1cc([N+](=O)[O-])c(Nc2ccc([N+](=O)[O-])cc2Br)c([N+](=O)[O-])c1`, inactive: -0.12%. With `Cc1ccc(S(=O)(=O)NCCCCC(NC(=O)OC(C)(C)C)C(=O)O)cc1` (stereo not drawn) the figure was inactive: 0.53%; with `COC(=O)c1nsnc1NCCCl`, inactive: 0.34%; with `CC1(CBr)Cn2c(nc3ccccc3c2=O)S1` (stereo not drawn), inactive: 0.1%. Regarding `CC(Cl)(CSSCC(C)(Cl)C(=O)O)C(=O)O` (stereo not drawn), the normalized activity (activation) is inactive: -0.32%. To `COc1cc([N+](=O)[O-])cc([N+](=O)[O-])c1N/N=C(/C)c1cccc([N+](=O)[O-])c1` belongs inactive: 0.73%; to `O=C(c1ccco1)N(Cc1cccnc1)C1CCN(CCc2ccc(Cl)cc2)CC1`, inactive: -0.13%; to `CCc1cccc(NC(=O)Oc2c([N+](=O)[O-])cc([N+](=O)[O-])cc2[N+](=O)[O-])c1`, inactive: -0.06%. In the case of `CC(C)(C)C(=O)NC(Sc1ncccn1)C(Cl)(Cl)Cl` (stereo not drawn), the normalized activity (activation) was inactive: -0.04%.

Regarding `CCOc1ccc(NP2(=O)C=C(Cl)N(C)C(=O)N2C)cc1` (stereo not drawn), the normalized activity (activation) was inactive: 0%. To `n1[nH]nc2c1c1n[nH]nc1c1n[nH]nc21` belongs inactive: -0.98%; to `COc1cccc(OP(=O)(Nc2ccccn2)Oc2cccc(OC)c2)c1`, inactive: -0.04%; to `CCOP(=O)(NC(=NC(C)c1ccccc1)NC(C)c1ccccc1)OCC` (stereo not drawn), inactive: 0.13%.

As for `CCOc1ccc(NC(=O)c2ccc([N+](=O)[O-])cc2[N+](=O)[O-])c([N+](=O)[O-])c1`, the normalized activity (activation) is inactive: -0.12%. On to `COc1ccc2nc(SCc3ccc(C(=O)O)cc3)[nH]c2c1`, for which the normalized activity (activation) is inactive: 0.48%.

Take `O=[N+]([O-])c1cc([N+](=O)[O-])c(N2CCCCC2)c([N+](=O)[O-])c1`: the normalized activity (activation) is inactive: -1.53%. As to `O=P1(Nc2ccccn2)COc2ccccc2OC1`, the normalized activity (activation) is inactive: -0.04%. With `CN(CCCl)Cc1cc(Cl)c(NC2=NCCN2)c(Cl)c1` the figure was inactive: 0.03%.

Turning to `CCOP(=O)(CN)OCC`, the normalized activity (activation) is inactive: 0.8%. To `O=C(Cc1ccc(F)cc1)N(Cc1cccnc1)C1CCN(CCc2ccccn2)CC1` belongs inactive: 0.13%; to `Nc1c([N+](=O)[O-])cc([N+](=O)[O-])c(Nc2ccc(S(N)(=O)=O)cc2)c1[N+](=O)[O-]`, inactive: -0.28%; to `CCN(CC)C(=O)NP(=O)(Oc1ccccc1)Oc1ccccc1`, inactive: -0.01%.

As for `Cc1cc(NP(=O)(Oc2ccccc2)Oc2ccccc2)no1`, the normalized activity (activation) was inactive: -0.07%.

Regarding `COc1ccc(NC(=O)c2cc([N+](=O)[O-])cc([N+](=O)[O-])c2)c([N+](=O)[O-])c1`, the normalized activity (activation) is inactive: -0.08%. On to `O=C(Nc1ccncc1[N+](=O)[O-])c1ccc([N+](=O)[O-])cc1[N+](=O)[O-]`, for which the normalized activity (activation) is inactive: -0.11%.

`COc1ccc(CCN2CCC(N(Cc3cccnc3)C(=O)NC(C)C)CC2)cc1`: the normalized activity (activation) was inactive: 0.3%. Regarding `COc1cc(NC(=O)COC(=O)C(O)(c2ccccc2)c2ccccc2)cc(OC)c1`, the normalized activity (activation) was inactive: 0.08%. With `Cc1cc(NP(=O)(/C=C(\Cl)c2ccccc2)/C=C(\Cl)c2ccccc2)n[nH]1` the figure was inactive: -0.09%.

As to `O=C(COC(=O)c1ccc([N+](=O)[O-])cc1[N+](=O)[O-])c1ccc([N+](=O)[O-])cc1`, the normalized activity (activation) is inactive: -0.21%. With `Cc1sc2nc3n(c(=O)c2c1C)CC(CI)S3` (stereo not drawn) the figure was inactive: 0.02%; with `O=C(CF)NC(Sc1ccccc1)C(Cl)(Cl)Cl` (stereo not drawn), inactive: 0.26%.
